Earlier results on one molecule are cited in patent US10206949B2, “Composition that relieves heartburn, GERD and hangovers” (priority 2015, dated 2019).

By UniProt entry, the sequences of proteins in these tests, tags left out.
UniProt P25021, whole entry: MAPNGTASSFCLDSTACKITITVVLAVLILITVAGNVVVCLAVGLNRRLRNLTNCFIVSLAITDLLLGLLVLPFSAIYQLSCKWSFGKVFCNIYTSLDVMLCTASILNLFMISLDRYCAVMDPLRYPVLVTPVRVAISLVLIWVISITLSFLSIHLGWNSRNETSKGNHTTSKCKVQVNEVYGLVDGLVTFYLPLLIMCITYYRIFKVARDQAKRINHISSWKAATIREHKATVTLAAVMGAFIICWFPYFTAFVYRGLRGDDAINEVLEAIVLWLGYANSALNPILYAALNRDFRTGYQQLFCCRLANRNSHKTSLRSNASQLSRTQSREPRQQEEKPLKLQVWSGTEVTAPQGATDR

For this series, the target named is histamine receptor (Homo sapiens, UniProt P25021). The conditions noted are these: clinically.

Turning to `NC(N)=Nc1nc(CSCCC(N)=NS(N)(=O)=O)cs1` [famotidine, 3-([2-(diaminomethyleneamino)thiazol-4-yl]methylthio)-N′-sulfamoyl-propanimid-amide], the “activity relative to cimetidine” value is given as 30 times more active than cimetidine.
